Biological target: T1, rat TRPV-1 receptor (Rattus norvegicus, UniProt O35433)
T1 construct: expressed in transfected cells; host or cells: HEK-293T
Test: Dose response curve, temperature activation of the TRPV-1 receptor in transfected HEK-293T cells
Type: cell-based
Settings: relative fluorescence at 50° C., HEK-293T cells transfected with rat TRPV-1, two independent experiments, ± standard deviation
Protocol: The synthesized compounds were evaluated in HEK-293T cell cultures transfected with cDNA from rat TRPV receptors. The compound activity was based on the capsaicin and temperature activation mechanism of the TRPV-1 receptor, which raised the levels of intracellular calcium as a consequence of the opening of the ionic channel of the receptor. The influx of calcium was measured with a fluorescent probe, Fluo 4-AM, as in the presence of an antagonist the calcium influx is blocked by the inactivation of the TRPV-1 receptor and cellular fluorescence decreases. […]
Once the rat TRPV-1 receptor had been transfected, Fluo-4 AM charged HEK 293T cells were plated out in 48-well plates at a cellular density of 50,000 cells per well, with a transfection percentage of 40-50%. […] The fluorescence measurements were then read on a real time PCR system that allows an increment of 1° C. every 35 seconds from 36° C. to 55° C. for compounds and from 22-56° C. for transfected cells in absence of compounds. Reading of the fluorescence measurement was done using a FAM filter (483-533nM). The fluorescence data were obtained for each temperature and each compound, and have been corrected subtracting the cellular background and the base line corresponding to the fluorescence at the start of the ramp (22 or 36° C.) for each sample. […]

By UniProt entry, the sequences of proteins in these tests, tags left out.
UniProt O35433, whole entry: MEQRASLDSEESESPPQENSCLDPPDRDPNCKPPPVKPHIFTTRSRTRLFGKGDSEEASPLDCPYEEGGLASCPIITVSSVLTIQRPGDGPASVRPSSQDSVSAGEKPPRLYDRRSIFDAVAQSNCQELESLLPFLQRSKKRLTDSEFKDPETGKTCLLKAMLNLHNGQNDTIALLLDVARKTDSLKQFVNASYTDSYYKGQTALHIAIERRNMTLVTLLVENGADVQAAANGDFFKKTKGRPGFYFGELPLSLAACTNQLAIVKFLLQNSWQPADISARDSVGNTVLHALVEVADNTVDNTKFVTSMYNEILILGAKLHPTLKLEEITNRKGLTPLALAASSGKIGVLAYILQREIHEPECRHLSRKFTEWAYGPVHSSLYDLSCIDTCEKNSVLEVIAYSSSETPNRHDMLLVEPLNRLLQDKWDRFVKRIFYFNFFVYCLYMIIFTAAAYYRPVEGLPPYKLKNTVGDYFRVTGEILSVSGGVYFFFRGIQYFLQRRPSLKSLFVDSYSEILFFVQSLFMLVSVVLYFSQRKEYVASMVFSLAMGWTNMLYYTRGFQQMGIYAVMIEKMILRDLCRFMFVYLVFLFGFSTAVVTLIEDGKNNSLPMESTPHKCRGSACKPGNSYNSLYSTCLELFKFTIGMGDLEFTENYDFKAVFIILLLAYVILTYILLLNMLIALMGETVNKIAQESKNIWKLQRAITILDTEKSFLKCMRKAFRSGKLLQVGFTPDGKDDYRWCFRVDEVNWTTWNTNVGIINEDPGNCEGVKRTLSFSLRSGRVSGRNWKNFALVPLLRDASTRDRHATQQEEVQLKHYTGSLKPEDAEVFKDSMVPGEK

IC50 (1,3,4-thiadiazole alkylamide derivatives): 2.12 ± 0.354 nM | IC50 (chalcone derivatives): 2.12 ± 0.354 nM
SMILES: CC(C)(C)c1ccc(NC(=O)N2CCN(c3ncccc3Cl)CC2)cc1 [BCTC, N-(4-tertiarybutylphenyl)-4-(3-cholorphyridin-2-yl)tetrahydropyrazine-1(2H)-carbox-amide]

Reference: patent US20160039778A1, “TRPV-1 RECEPTOR ANTAGONIST COMPOUND DERIVED FROM 1,3,4-THIADIAZOLE ALKYLAMIDES AND CHALCONES” (UNIVERSIDAD DE CONCEPCION, priority 2012, published 2016)
